The assay has as its target T1, Histone deacetylase 8 (Homo sapiens, UniProt Q9BY41).
T1 sequence (Q9BY41 whole entry): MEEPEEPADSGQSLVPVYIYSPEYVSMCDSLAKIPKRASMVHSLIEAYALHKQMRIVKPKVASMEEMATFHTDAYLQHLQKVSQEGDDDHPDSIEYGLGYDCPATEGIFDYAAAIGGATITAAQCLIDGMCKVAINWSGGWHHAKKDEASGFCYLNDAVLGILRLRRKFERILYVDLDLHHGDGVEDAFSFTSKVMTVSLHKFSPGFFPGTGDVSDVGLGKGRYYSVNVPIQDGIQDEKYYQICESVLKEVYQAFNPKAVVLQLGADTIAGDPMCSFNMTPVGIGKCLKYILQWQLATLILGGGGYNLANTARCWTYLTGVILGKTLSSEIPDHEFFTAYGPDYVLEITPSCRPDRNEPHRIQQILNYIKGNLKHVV
The assay is described as follows: Inhibition of recombinant human HDAC8 enzyme using Ac-LeuGlyLys (tfa)-AMC as substrate after 15 to 30 mins.

From ChEMBL document CHEMBL2417416, “Total synthesis and full histone deacetylase inhibitory profiling of Azumamides A-E as well as β²- epi-Azumamide E and β³-epi-Azumamide E” (J Med Chem, 2013) come the findings set out here.

pKi: −log10 of the molar value.

`O=C(CCCCCCC(=O)Nc1ccccc1)NO` [VORINOSTAT]: the pKi – broadly, the Ki on a negative log10 scale, so that one unit is a factor of ten – is 6.15.
